Experimental data as given in patent US20060094649A1, “Hla-a1,-a2,-a3,-a24,-b7, and-b44 tumor associated antigen peptides and compositions” (priority 2002, published 2006).

Experiments:
HLA-B*4002 = HLA-B*4002 (Homo sapiens, UniProt P01889, A65T/A93T/A95T/D138N/D201E/D98Y/E176V/E204Q/E69K/K202T/N87E/Q56L/Q94N/R180L/S48T/Y33H/Y91S); experiment: Class I peptide-binding assay, HLA-B*4002 (B44 supertype)
HLA-B*4001 = HLA-B*4001 (Homo sapiens, UniProt P01889, A65T/A93T/A95T/D138N/D98Y/E176V/E69K/N87E/Q56L/Q94N/R180L/S121R/S35A/S48T/T167S/V36M/W171L/Y33H/Y91S); experiment: Class I peptide-binding assay, HLA-B*4001 (B44 supertype)
HLA-B*4402 = HLA-B*4402 (Homo sapiens, UniProt P01889, A223V/A65T/A93T/A95T/D201E/D98Y/E176V/E187L/E204Q/E69K/G107R/H137Y/K202T/L105A/L119I/N104T/N87E/Q56L/Q94N/R106L/R155S/R180D/S101N/S121R/S35A/S48T/T118I/V36M/W191S/Y140D/Y91S); experiment: Class I peptide-binding assay, HLA-B*4402 (B44 supertype); conditions: read-out: B*4402
HLA-B*4403 = HLA-B*4403 (Homo sapiens, UniProt P01889, A223V/A65T/A93T/A95T/D201E/D98Y/E176V/E187L/E204Q/E69K/G107R/H137Y/K202T/L105A/L119I/N104T/N87E/Q56L/Q94N/R106L/R155S/R180L/S101N/S121R/S35A/S48T/T118I/V36M/W191S/Y140D/Y91S); experiment: Class I peptide-binding assay, HLA-B*4403 (B44 supertype)
HLA-B*1801 = HLA-B*1801 (Homo sapiens, UniProt P01889, A329T/A93T/A95T/C349S/D201E/D54G/D98Y/E176V/E187T/E204Q/E69T/K202T/Q94N/R155S/R180L/S121R/V306I/Y140S/Y195H/Y33H/Y91S); experiment: Class I peptide-binding assay, HLA-B*1801 (B44 supertype)
[1] = test system: HLA-B44 supertype molecules; experiment: HLA-B44 supertype cross-binding; set-up: species or system human; conditions: number of the six B44 supertype alleles bound
HLA-B*4501 = HLA-B*4501 (Homo sapiens, UniProt P01889, A329T/A65T/A93T/A95T/C349S/D138N/D201E/D98Y/E176V/E187L/E204Q/E69K/H137Y/K202T/L119W/N87E/Q56L/Q94N/R155S/R180D/S121R/S35A/S48T/V127L/V306I/V36M/W191S/Y140L/Y33H/Y91S); experiment: Class I peptide-binding assay, HLA-B*4501 (B44 supertype)
HLA-A*6801 = HLA-A*6801 (Homo sapiens, UniProt P04439, A269V/D185E/E176V/E277Q/E87N/F33Y/G231S/I121M/I166T/I218V/L180W/L300P/L318F/N151K/P208A/P217A/Q86R/R169H/T345S); experiment: Class I peptide-binding assay, HLA-A*6801; conditions: for IC50: read-out: HLA Binding (IC50 nM) A*6801
[2] = test system: HLA-A3 supertype molecules; experiment: HLA-A3 supertype cross-binding (A*0301, A*1101, A*3101, A*3301, A*6801)
HLA-A*1101 = HLA-A*1101 (Homo sapiens, UniProt P04439, A114D/D185E/E176A/F33Y/L180Q/S129P/T187R); experiment: Class I peptide-binding assay, HLA-A*1101; conditions: for pIC50: Table 16d, p53-derived
HLA-A*0301 = HLA-A*0301 (Homo sapiens, UniProt P04439); experiment: Class I peptide-binding assay, HLA-A*0301
[3] = test system: peptide-pulsed target cells; experiment: In vitro primary CTL induction, recognition of peptide-pulsed targets (51Cr release or IFNγ ELISA); format: cell-based, human; conditions: Table 16d, second part; positive/total tested

SMILES: CC(C)C[C@H](NC(=O)[C@H](Cc1ccc(O)cc1)NC(=O)[C@@H](NC(=O)[C@H](C)NC(=O)[C@H](CC(=O)O)NC(=O)[C@H](CCC(N)=O)NC(=O)[C@@H](NC(=O)[C@H](CCC(=O)O)NC(=O)[C@@H]1CCCN1C(=O)[C@H](CCC(=O)O)NC(=O)[C@@H](N)CS)[C@@H](C)O)[C@@H](C)O)C(=O)O
pIC50 (HLA-B*4002; CEA-derived B44 peptides, read-out: B*4002): 5.47
pIC50 (HLA-B*4001; CEA-derived B44 peptides, read-out: B*4001): 6.51
pIC50 (HLA-B*4402; CEA-derived B44 peptides): 6.40
pIC50 (HLA-B*4403; CEA-derived B44 peptides, read-out: B*4403): 6.09
pIC50 (HLA-B*1801; CEA-derived B44 peptides, read-out: B*1801): 6.08
Degeneracy [1]: 2
pIC50 (HLA-B*4501; CEA-derived B44 peptides, read-out: B*4501): < 5.00

SMILES: CC[C@H](C)[C@H](NC(=O)[C@@H](NC(=O)[C@@H]1CCCN1C(=O)[C@H](Cc1ccccc1)NC(=O)[C@@H](NC(=O)[C@@H](N)Cc1ccc(O)cc1)C(C)C)C(C)C)C(=O)N[C@@H](Cc1ccccc1)C(=O)N[C@@H](CO)C(=O)N[C@@H](CCCCN)C(=O)O
pIC50 (HLA-A*6801; Table 20, TAA A3 supertype candidates, read-out: A*6801 binding affinity): 8.77
No. A3 supertype alleles crossbound (200) ([2]; Table 20, binding affinity threshold of 200 nM or less): 3

SMILES: CC[C@H](C)[C@H](NC(=O)[C@@H](NC(=O)[C@@H]1CCCN1C(=O)[C@H](Cc1ccccc1)NC(=O)[C@@H](NC(=O)[C@@H](N)Cc1ccc(O)cc1)C(C)C)C(C)C)C(=O)N[C@@H](Cc1ccccc1)C(=O)N[C@@H](CO)C(=O)N[C@@H](CCCCN)C(=O)O [compound 99]
IC50 (HLA-A*6801; Table 16c, Mage2/3-derived): 1.7 nM
Number of A3 alleles crossbound ([2]; Table 16c, Mage2/3-derived): 3

SMILES: CC[C@H](C)[C@H](NC(=O)[C@@H](NC(=O)[C@@H]1CCCN1C(=O)[C@H](Cc1ccccc1)NC(=O)[C@@H](NC(=O)[C@@H](N)Cc1ccc(O)cc1)C(C)C)C(C)C)C(=O)N[C@@H](Cc1ccccc1)C(=O)N[C@@H](CO)C(=O)N[C@@H](CCCNC(=N)N)C(=O)O [compound 100]
IC50 (HLA-A*1101; read-out: HLA Binding (IC50 nM) A*1101, Table 16c, Mage2/3-derived): 2.6 nM
pIC50 (HLA-A*0301): 7.44

SMILES: CC[C@H](NC(=O)[C@H](CO)NC(=O)[C@@H](N)CO)C(=O)N[C@@H](CCSC)C(=O)NCC(=O)NCC(=O)N[C@@H](CCSC)C(=O)N[C@@H](CC(N)=O)C(=O)N[C@@H](CCCCN)C(=O)O [compound 118]
pIC50 (HLA-A*1101): 8.26
IC50 (HLA-A*6801; Table 16d, p53-derived): 140 nM
Number of A3 alleles crossbound ([2]; Table 16d, p53-derived): 3
pIC50 (HLA-A*0301; Table 16d, p53-derived): 7.70

SMILES: CC(C)[C@H](NC(=O)[C@H](CS)NC(=O)[C@H](CO)NC(=O)[C@H](C)NC(=O)CNC(=O)[C@H](Cc1ccccc1)NC(=O)[C@@H](NC(=O)[C@H](Cc1ccc(O)cc1)NC(=O)[C@H](CCCNC(=N)N)NC(=O)CNC(=O)[C@H](CCC(=O)O)NC(=O)[C@@H]1CCCN1)[C@@H](C)O)C(=O)N[C@H](C(=O)O)[C@@H](C)O [compound 546]
pIC50 (HLA-B*4002): 5.48
pIC50 (HLA-B*4001): 5.36
pIC50 (HLA-B*4402): 5.81
pIC50 (HLA-B*4403): 6.34
pIC50 (HLA-B*1801): 5.18
Degeneracy [1]: 1
pIC50 (HLA-B*4501): 5.92

SMILES: CC(C)C[C@H](NC(=O)[C@H](CC(=O)O)NC(=O)[C@H](CO)NC(=O)[C@H](Cc1ccccc1)NC(=O)[C@@H](NC(=O)[C@H](CCC(=O)O)NC(=O)[C@@H](N)CCC(N)=O)[C@@H](C)O)C(=O)O [compound 638]
pIC50 (HLA-B*4002; p53-derived B44 peptides, Table 28, read-out: B*4002): 4.91
pIC50 (HLA-B*4001; p53-derived B44 peptides, Table 28, read-out: B*4001): 4.74
pIC50 (HLA-B*4402; p53-derived B44 peptides, Table 28, dash cells): < 5.00
pIC50 (HLA-B*4403; p53-derived B44 peptides, Table 28, read-out: B*4403): 5.79
pIC50 (HLA-B*1801; p53-derived B44 peptides, Table 28, read-out: B*1801): 5.07
pIC50 (HLA-B*4501): 4.74

Further lines, with some results ahead:

A*1101 binding affinity (in words) (HLA-A*1101): High
SMILES: CC(C)C[C@H](NC(=O)[C@H](CC(C)C)NC(=O)[C@@H](NC(=O)[C@H](CC(C)C)NC(=O)[C@@H](NC(=O)[C@@H](N)CCCNC(=N)N)[C@@H](C)O)[C@@H](C)O)C(=O)N[C@@H](CO)C(=O)N[C@H](C(=O)N[C@H](C(=O)N[C@@H](CCCNC(=N)N)C(=O)O)[C@@H](C)O)C(C)C [CEA.376]

A*1101 binding affinity (in words) (HLA-A*1101): High
SMILES: CC(C)C[C@H](NC(=O)[C@@H](NC(=O)[C@H](CC(C)C)NC(=O)[C@@H](NC(=O)[C@@H](N)CCCNC(=N)N)[C@@H](C)O)[C@@H](C)O)C(=O)N[C@@H](Cc1ccccc1)C(=O)N[C@@H](CC(N)=O)C(=O)N[C@H](C(=O)N[C@H](C(=O)N[C@@H](CCCNC(=N)N)C(=O)O)[C@@H](C)O)C(C)C [CEA.554]

pIC50 (HLA-A*1101): 7.15
Number of A3 alleles crossbound ([2]; Table 16d, p53-derived): 1
SMILES: CSCC[C@H](NC(=O)CNC(=O)CNC(=O)[C@H](CCSC)NC(=O)[C@H](CS)NC(=O)[C@H](CO)NC(=O)[C@@H](N)CO)C(=O)N[C@@H](CC(N)=O)C(=O)N[C@@H](CCCNC(=N)N)C(=O)N[C@@H](CCCNC(=N)N)C(=O)O [compound 121]
Immunogenicity Peptide [3]: 0/1

IC50 (HLA-A*6801; Table 16d, p53-derived): 103 nM
Number of A3 alleles crossbound ([2]; Table 16d, p53-derived): 3
pIC50 (HLA-A*0301; Table 16d, p53-derived): 6.58
SMILES: CC[C@H](NC(=O)[C@H](CO)NC(=O)[C@@H](N)CO)C(=O)N[C@@H](CCSC)C(=O)NCC(=O)NCC(=O)N[C@@H](CCSC)C(=O)N[C@@H](CC(N)=O)C(=O)N[C@@H](CCCNC(=N)N)C(=O)N[C@@H](CCCCN)C(=O)O [compound 122]

pIC50 (HLA-B*4002; HER2/neu-derived B44 peptides, Table 27, binding to purified HLA-B*4002, read-out: B*4002): 7.11
pIC50 (HLA-B*4001; HER2/neu-derived B44 peptides, Table 27, binding to purified HLA-B*4001, read-out: B*4001): 6.75
pIC50 (HLA-B*4402; HER2/neu-derived B44 peptides, Table 27, binding to purified HLA-B*4402): 6.49
pIC50 (HLA-B*4403; HER2/neu-derived B44 peptides, Table 27, binding to purified HLA-B*4403, read-out: B*4403): 8.34
pIC50 (HLA-B*1801; HER2/neu-derived B44 peptides, Table 27, binding to purified HLA-B*1801, read-out: B*1801): 7.46
Degeneracy [1]: 6
pIC50 (HLA-B*4501; HER2/neu-derived B44 peptides, Table 27, binding to purified HLA-B*4501, read-out: B*4501): 6.96
SMILES: CC[C@H](C)[C@H](NC(=O)[C@H](Cc1ccc(O)cc1)NC(=O)[C@H](CC(C)C)NC(=O)[C@H](Cc1ccc(O)cc1)NC(=O)CNC(=O)[C@@H](NC(=O)[C@@H](NC(=O)[C@H](CCC(=O)O)NC(=O)[C@H](CCC(=O)O)NC(=O)[C@@H](N)CC(C)C)[C@@H](C)CC)[C@@H](C)O)C(=O)N[C@@H](CO)C(=O)N[C@@H](C)C(=O)O [compound 442]

pIC50 (HLA-B*4002; MAGE2-derived B44 peptides, Table 29, read-out: B*4002): 4.73
pIC50 (HLA-B*4001; MAGE2-derived B44 peptides, Table 29, dash cells, read-out: B*4001): < 5.00
pIC50 (HLA-B*4402; MAGE2-derived B44 peptides, Table 29, dash cells): < 5.00
pIC50 (HLA-B*4403; MAGE2-derived B44 peptides, Table 29, read-out: B*4403): 6.01
pIC50 (HLA-B*1801; MAGE2-derived B44 peptides, Table 29, read-out: B*1801): 5.22
pIC50 (HLA-B*4501; MAGE2-derived B44 peptides, Table 29, read-out: B*4501): 4.81
SMILES: CC[C@H](C)[C@H](NC(=O)[C@H](CCCCN)NC(=O)[C@H](CCC(=O)O)NC(=O)[C@H](CCC(=O)O)NC(=O)[C@@H]1CCCN1)C(=O)N[C@@H](Cc1c[nH]c2ccccc12)C(=O)N[C@@H](CCC(=O)O)C(=O)N[C@@H](CCC(=O)O)C(=O)N[C@@H](CC(C)C)C(=O)N[C@@H](CO)C(=O)N[C@@H](CCSC)C(=O)O [compound 715]

pIC50: −log10 of the molar value. Read-outs that look alike come from different tables or passages of the source. Each block holds one molecule with its values, some of them ahead of it.
